# From PubChem BioAssay AID588493 (Sanford-Burnham Center for Chemical Genomics, 2011)
# The chains behind the UniProt entries cited, without tags or fusion partners.
# UniProt O00487, whole entry: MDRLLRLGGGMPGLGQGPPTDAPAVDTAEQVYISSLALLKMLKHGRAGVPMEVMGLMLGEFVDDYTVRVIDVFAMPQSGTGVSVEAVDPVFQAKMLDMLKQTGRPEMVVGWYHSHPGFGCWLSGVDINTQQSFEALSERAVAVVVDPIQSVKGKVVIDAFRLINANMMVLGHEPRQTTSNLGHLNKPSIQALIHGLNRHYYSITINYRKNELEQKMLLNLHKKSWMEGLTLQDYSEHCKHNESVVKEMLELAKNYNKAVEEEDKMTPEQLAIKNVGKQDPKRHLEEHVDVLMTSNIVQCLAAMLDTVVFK
# The entries are a selection whose mix differs from that of the whole data set. The source made the active and inactive calls.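 Rule for the calls: active = inhibition at 20 µM, scaled to each plate's controls, above about 33% (limit read from the data); inactive = the rest.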
# Molecular target: 26S proteasome non-ATPase regulatory subunit 14 (Homo sapiens) (UniProt O00487)
# Assay: Rpn11 (PSMD14) deubiquitinase inhibitors, primary screen, biochemical, fluorescence polarization, uHTS (AID 588493)
# Settings: human 26S proteasome, Ub4-pepOG fluorescence polarization; at 20 µM; active compounds read high; 20S core pre-blocked with epoxomicin
row,Structure (SMILES),inhibition
1,CCC(=O)N(c1ccccc1)C1(COC)CCN(CCn2nnn(CC)c2=O)CC1,inactive: 2.5%
2,CCC(=O)N(c1ccccc1)C1(COC)CCN(CCc2cccs2)CC1,inactive: 2.6%
